# Laboratory results reported in patent publication US20230312510A1, “COMPOUNDS AND METHODS FOR TREATING NEURODEGENERATIVE DISEASES” (The McLean Hospital Corporation, priority 2020, published 2023).
# Tested on: point-mutant Nurr1-LBD
# Experiment: Nurr1 transactivation with point-mutant Nurr1-LBD in SK-N-BE(2)C cells
# Conditions: CQ 100 μM, SPV-94 20 μM; S441, I573, I588, K590, L593, D594, T595, L596 or F598 mutants
compound,measurement,value
CCN1CCN(c2cc(NCCNc3ccnc4cc(Cl)ccc34)nc(N3CCN(CC)CC3)n2)CC1 [SPV-94],Nurr1 transactivation with point mutations on potential binding residues of Nurr1-LBD,failed to induce
